This note sets out measurements from PubChem BioAssay AID1236 (Emory University Molecular Libraries Screening Center, 2008).

Each structure is given as a SMILES string. The entries are a selection whose mix differs from that of the whole data set. The source made the active and inactive calls.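 The calls were made as follows: active = inhibition above about 50% (limit read from the data); inactive = the rest.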

This experiment deals with calpain II (m-calpain), Sus scrofa. Description: m-calpain protease activity blockers – biochemical, fluorogenic peptide substrate, 1536-well, primary screen (AID 1236). The settings on record: purified calpain II, 30 min, at 16 µM, stronger effect = higher value.
The inhibition is the drop in the measured response relative to a control, in per cent. As for `CC(C)/C=N\N=C(\N)N[N+](=O)[O-]`, the inhibition was inactive: -22.9%. With `O=[As](O)(c1ccccc1Br)c1ccccc1Br` the figure was inactive: -23.3%. Take `O=P1(Nc2ccccn2)COc2ccccc2OC1`: the inhibition was inactive: -30.3%. Then `CCOP(=O)(Nc1ccc(C)cn1)OCC`, with inactive: -25.9%; and `CC(C)(C)C(=O)NC(Sc1ncccn1)C(Cl)(Cl)Cl` (stereo unspecified), with inactive: -21.6%. With `Clc1n[nH]nc1-c1nn[nH][15n]1` the figure was inactive: -20.5%; with `Nc1cccc2c([As](=O)(O)O)cccc12`, inactive: -137%; with `Cc1ccc(NCCc2c([N+](=O)[O-])cc([N+](=O)[O-])cc2[N+](=O)[O-])cc1`, inactive: 10.4%. Take `CCCOP(=S)(Nc1nc(N)cc(=O)[nH]1)OCCC`: the inhibition was inactive: 16.7%. With `CCOP(=O)(Nc1cccc2ccccc12)OCC`, the inhibition was inactive: 17.2%. Then `COc1cc(C2NCCC3(OCCO3)C2(C)C)cc(OC)c1OC` (stereo unspecified), with inactive: 18.7%; and `O=C(OC1CN2CCC1CC2)c1ccc(Cl)cc1` (stereo unspecified), with inactive: -30.3%. As for `O=[As](O)(O)c1cccnc1`, the inhibition is inactive: -20.9%. With `COc1cc(C(=O)NCC2(N3CCOCC3)CCCCC2)cc(Cl)c1OC(C)C` the figure was inactive: 11.6%. Then `Cc1cccc(OCC(=O)OC2CN3CCC2CC3)c1` (stereo unspecified), with inactive: 6.57%. With `O=[As](O)(c1cccc(O)c1)c1cccc(O)c1` the figure was inactive: 7.83%; with `NC(=O)Nc1ccc([As](=O)(O)O)cc1`, inactive: -19.4%. As for `CCOP1(=S)c2c(C)nn(CCC#N)c2N=C(c2ccc(F)cc2)N1C` (stereo unspecified), the inhibition is inactive: 3.42%. With `CN(C(=O)Cc1ccccc1)[C@@H]1CC[C@]2(CCCO2)C[C@H]1N1CCCC1` the figure was inactive: -25.3%; with `O=[N+]([O-])c1ccc2c(c1)nnn2O`, inactive: 15.3%. Take `O=P(Nc1nccs1)(Oc1ccccc1)Oc1ccccc1`: the inhibition is inactive: -4.76%.

Regarding `O=P(Nc1nccs1)(c1ccccc1)c1nc2ccccc2s1` (stereo unspecified), the inhibition is inactive: 8.75%.

With `CCOP1(=S)c2c(C)nn(CCC#N)c2N=C(c2ccccc2F)N1C` (stereo unspecified), the inhibition is inactive: -30.4%. Regarding `CS(=O)(=O)c1cc([N+](=O)[O-])c2no[n+]([O-])c2c1`, the inhibition is inactive: 5%. With `O=C(O)COc1ccc([As](=O)(O)O)cc1[N+](=O)[O-]` the figure was inactive: 5.43%. Take `Nc1ccccc1[As](=O)(O)c1ccccc1`: the inhibition was inactive: 3.09%.
